One data set relates to head and neck cancer. Put plainly: Photoimmunotherapy of a subject with head and neck cancer (IV conjugate, then 690 nm light). The class given is in vivo. Conditions: follow up Day 4. The protocol:
The packaging of each vial containing the conjugate was opened and the contents of that vial were placed into a sterile IV bag. The process of opening each individual vial and placing the contents into the IV bag was repeated until the desired dose of conjugate for infusion was achieved. Each vial was opened separately and placed into the IV bag so as to reduce the exposure of the drug product to ambient room light. The process was performed in less than 15 min. The IV bag was covered at all times by an opaque sleeve to protect the conjugate from light exposure. After preparation, the IV bag was stored at 2-8° C.
The subject was administered the conjugate via IV infusion over 2 hours on Day 1. During the infusion, the lighting in the treatment room was less than 200 lux of fluorescent light. Any windows in the room were covered with shades. The IV bag was covered during the administration by an opaque sleeve to protect the conjugate from light exposure. Any light exposure was limited to less than 5 minutes.
To induce photoimmunotherapy, one light application of with a light having a wavelength of 690 nm was performed at 24 hours±2 h (Day 2) post conjugate administration.

In a further data set the test system is BxPC3 cells. Put plainly: PIT killing of BxPC3 cells by light pre-exposed conjugate (CellTox Green). The data set is classed as cell-based.
The subject of a further data set is THP1 cells. Put plainly: PIT killing of Fc receptor-expressing target cells. The class given is cell-based, Human. Conditions: 500 ng/mL. The protocol:
THP1 cells (ATCC, TIB-202) grown in complete RPMI 1640 medium were plated at 5000 cells in 100 μL total volume per well in a 96 well tissue culture plate for adherence overnight. The viability of the cells prior to plating was checked via trypan blue exclusion method and >95% cells were viable.
To induce killing, cells in each group were subjected to 690 nm laser light at a dose of 32 J/cm2. The controls represented wells corresponding to the groups described above but not treated with light. Cell killing was assessed using CellTox Green as described substantially as described Example 9. CellTox Green dye (1×) was added to the wells and cells were incubated for 24 hours at 37° C. in an incubator. The dye was also added to couple of wells just containing 100 μL of the medium for background subtraction later. After the incubation, the tissue culture plate was immediately read on a plate reader. […] The plate was then read again to obtain values for 100% cell death. For each read, the two background wells were averaged and their values subtracted from all other wells. In order to calculate the % cell death for each well, the background subtracted value from the first read was divided by the value from the second read (after lysis), and multiplied by 100.

The subject of a further data set is S. aureus. Put plainly: PIT killing of bacterial cells, colony forming units. The data set is classed as cell-based, Staphylococcus aureus. Conditions: 100 μg/mL, 690 nm laser 300 J/cm^2, versus the other three groups. The protocol: The cells were then illuminated with a 690 nm laser at 0 or 300 J/cm^2. The number of remaining viable bacterial cells was determined by counting colony forming units (CFU) on BHI agar plates under the following conditions. As a control, the number of viable bacterial cells also was assessed in cells treated with cetuximab-IRDye 700DX incubation alone but without laser illumination, laser illumination alone, or untreated. Percent of viable CFU was normalized to bacterial cells with no treatment.

[1] abbreviates: 160 mg/m^2 IV, 690 nm light at 24 hours.

Take “Cetuximab-IRDye 700DX: Cetuximab (anti-EGFR antibody) conjugated with IRDye 700DX NHS ester phthalocyanine dye”: the “Response of treated tumors at follow up” value with head and neck cancer (160 mg/m^2 IV over 2 hours Day 1, 690 nm light at 24 hours) was “all treated tumors exhibited necrosis”. In addition, in the data set on head and neck cancer (setting [1]), the Adverse effects result was “no adverse effects”, the Pain entry is given as “did not report any pain” and the Skin photosensitivity entry is recorded as “No skin photosensitivity was detected”. Moreover, in the data set with BxPC3 cells (all light pre-exposed samples, 1 μg/mL, 0 J/cm^2), the “effect on cell death without PIT light” value is listed as “no effect on cell death”. In addition, in the data set with BxPC3 cells (all lux-hour doses of green light evaluated, 690 nm 32 J/cm^2, 1 μg/mL), the “PIT potency after green light pre-exposure” value is reported as “did not result in an effect in PIT potency”. Further, the “PIT activity after white light pre-exposure” value with BxPC3 cells (pre-exposed to 3,000 Lux-Hours (500 lux for 6 hours) or more of white fluorescent light, 690 nm 32 J/cm^2, 1 μg/mL) is reported as “less than 90%”. Moreover, in the data set with THP1 cells (690 nm 32 J/cm^2), the cell killing result was “Maximum killing”. In addition, in the data set with THP1 cells (with or without Fc receptor blocking solution, 32 J/cm^2), the “specificity of cell killing” value is “Fc receptor-specific killing”. In the data set on S. aureus, the “viable CFU” value is listed as “statistically significant CFU reduction”.

The record behind these values is patent publication US12491249B2, “Methods for manufacturing phthalocyanine dye conjugates and stable conjugates” (Rakuten Medical, Inc., priority 2015, dated 2025).
